Experiment [1] has as its target cation-independent mannose-6-phosphate receptor (CIMPR). Kind of experiment: M6P receptor (CIMPR) plate binding assay.
The target of experiment [2] is cellular receptors (on normal and Pompe fibroblast cells). Kind of experiment: cell-based or functional assay.
Experiment [3] concerns the target cation-independent mannose-6-phosphate receptor (CIMPR). Description: CIMPR affinity column, same condition (FIG. 5).
Experiment [4] shares this target. Kind of experiment: CIMPR affinity chromatography, different production batches (FIG. 5).
Experiment [5] has the same target. Description: CIMPR affinity column, elution with free M6P gradient, fractions by GAA activity.

“ATB200 rhGAA (recombinant human acid α-glucosidase produced from CHO cell line GA-ATB200) (from UniProt P10253 57-952) (enzyme)”: in experiment [1], the Kd lay within 2 to 4 nM. For the same substance, in experiment [2], the concentration that saturates cellular receptors (uptake into fibroblasts, internalized GAA activity) came out at 20 nM. The substance also had a percent of rhGAA bound in experiment [3] above 70%. In experiment [4], this substance displayed a percent CIMPR receptor binding above 70%.
Regarding “LUMIZYME® (alglucosidase alfa, conventional rhGAA product) (from UniProt P10253 57-952) (enzyme)”, in experiment [2], the concentration that saturates cellular receptors (uptake into fibroblasts, internalized GAA activity) stood at 250 nM and the uptake efficiency constant (Kuptake) came out at 56 nM. In experiment [5], this substance came in with a percent of rhGAA that did not bind (flow through) of 78% and a percent of rhGAA with M6P that can target it to the CIMPR (bound fraction) of 22%.
In experiment [5], “MYOZYME® (alglucosidase alfa, conventional rhGAA product) (from UniProt P10253 57-952) (enzyme)” showed a percent of rhGAA that did not bind (flow through) of 73% and a percent of rhGAA with M6P that can target it to the CIMPR (bound fraction) of 27%.

The record behind these values is patent US20240197839A1, “Recombinant Human Acid Alpha-Glucosidase and Uses Thereof” (Amicus Therapeutics, Inc., priority 2021, published 2024).
